This passage reports abundance fitness results from the Human Domainome abundance scans (Beltran et al. 2025).

Sequences and labels used below:
B1: Tyrosine-protein kinase ABL1, residues 64 to 120; numbered along this chain, P00519 (parent)
chain: NLFVALYDFVASGDNTLSITKGEKLRVLGYNHNGEWCEAQTKNGQGWVPSNYITPVN

± gives the uncertainty stated by the source.

Variants of B1 are the subject of the data set. The data set can be described thus: abundance fitness (aPCA) (normalised: wild type 0, dead -1); higher = more abundant; growth selection in yeast, the domain comes from the species named. Conditions: Homo sapiens.
Regarding NLFVALYDFVASGDNTLSITKGEKLRVLGYNHNGEWCEAQTKNGQGWVLSNYITPVN, the abundance fitness was -0.33 ± 0.063.

NLFVALYDFVASGDNTLSITKGEKLRVLGYNHNGEWCEAQTKNGQGWVDSNYITPVN: the abundance fitness is -0.651 ± 0.16.

As for NLFVALYDFVASGDNTLSITKGEKLRVLGYNHNGEWCEAQTKNGQGWVQSNYITPVN, the abundance fitness is -0.301 ± 0.083.

As to NLFVALYDFVASGDNTLSITKGEKLRVLGYNHNGEWCEAQTKNGQGWVMSNYITPVN, the abundance fitness was -0.379 ± 0.14.

Consider NLFVALYDFVASGDNTLSITKGEKLRVLGYNHNGEWCEAQTKNGQGWVTSNYITPVN, for which the abundance fitness was -1.17 ± 0.33.

Consider NLFVALYDFVASGDNTLSITKGEKLRVLGYNHNGEWCEAQTKNGQGWVISNYITPVN, for which the abundance fitness was -0.674 ± 0.18.

As to NLFVALYDFVASGDNTLSITKGEKLRVLGYNHNGEWCEAQTKNGQGWVWSNYITPVN, the abundance fitness is -0.51 ± 0.17.

As to NLFVALYDFVASGDNTLSITKGEKLRVLGYNHNGEWCEAQTKNGQGWVFSNYITPVN, the abundance fitness is -0.884 ± 0.37.

As for NLFVALYDFVASGDNTLSITKGEKLRVLGYNHNGEWCEAQTKNGQGWVESNYITPVN, the abundance fitness was -0.663 ± 0.077.

In the case of NLFVALYDFVASGDNTLSITKGEKLRVLGYNHNGEWCEAQTKNGQGWVGSNYITPVN, the abundance fitness was -1.03 ± 0.12.

Turning to NLFVALYDFVASGDNTLSITKGEKLRVLGYNHNGEWCEAQTKNGQGWVCSNYITPVN, the abundance fitness is -0.514 ± 0.18.

In the case of NLFVALYDFVASGDNTLSITKGEKLRVLGYNHNGEWCEAQTKNGQGWVRSNYITPVN, the abundance fitness was -0.039 ± 0.059.

For NLFVALYDFVASGDNTLSITKGEKLRVLGYNHNGEWCEAQTKNGQGWVASNYITPVN, the abundance fitness was -0.538 ± 0.1.

As for NLFVALYDFVASGDNTLSITKGEKLRVLGYNHNGEWCEAQTKNGQGWVSSNYITPVN, the abundance fitness was -0.74 ± 0.14.

NLFVALYDFVASGDNTLSITKGEKLRVLGYNHNGEWCEAQTKNGQGWVNSNYITPVN: the abundance fitness is -0.578 ± 0.32.

On to NLFVALYDFVASGDNTLSITKGEKLRVLGYNHNGEWCEAQTKNGQGWVVSNYITPVN, for which the abundance fitness was -0.942 ± 0.19.

Turning to NLFVALYDFVASGDNTLSITKGEKLRVLGYNHNGEWCEAQTKNGQGWVYSNYITPVN, the abundance fitness was -0.706 ± 0.27.

On to NLFVALYDFVASGDNTLSITKGEKLRVLGYNHNGEWCEAQTKNGQGWVPPNYITPVN, for which the abundance fitness is -0.513 ± 0.082.

For the variant NLFVALYDFVASGDNTLSITKGEKLRVLGYNHNGEWCEAQTKNGQGWVPVNYITPVN, the abundance fitness was 0.056 ± 0.084.

On to NLFVALYDFVASGDNTLSITKGEKLRVLGYNHNGEWCEAQTKNGQGWVPGNYITPVN, for which the abundance fitness is -0.109 ± 0.058.

Turning to NLFVALYDFVASGDNTLSITKGEKLRVLGYNHNGEWCEAQTKNGQGWVPENYITPVN, the abundance fitness is -0.309 ± 0.11.

As for NLFVALYDFVASGDNTLSITKGEKLRVLGYNHNGEWCEAQTKNGQGWVPRNYITPVN, the abundance fitness amounted to 0.121 ± 0.063.

As for NLFVALYDFVASGDNTLSITKGEKLRVLGYNHNGEWCEAQTKNGQGWVPANYITPVN, the abundance fitness turned out to be 0.035 ± 0.082.

NLFVALYDFVASGDNTLSITKGEKLRVLGYNHNGEWCEAQTKNGQGWVPHNYITPVN: the abundance fitness was -0.024 ± 0.077.

As to NLFVALYDFVASGDNTLSITKGEKLRVLGYNHNGEWCEAQTKNGQGWVPLNYITPVN, the abundance fitness was -0.07 ± 0.086.

For NLFVALYDFVASGDNTLSITKGEKLRVLGYNHNGEWCEAQTKNGQGWVPQNYITPVN, the abundance fitness was found to be 0.152 ± 0.12.

NLFVALYDFVASGDNTLSITKGEKLRVLGYNHNGEWCEAQTKNGQGWVPYNYITPVN: the abundance fitness was -0.11 ± 0.15.

In the case of NLFVALYDFVASGDNTLSITKGEKLRVLGYNHNGEWCEAQTKNGQGWVPFNYITPVN, the abundance fitness is -0.1 ± 0.1.

With NLFVALYDFVASGDNTLSITKGEKLRVLGYNHNGEWCEAQTKNGQGWVPCNYITPVN, the abundance fitness turned out to be 0.181 ± 0.094.

Consider NLFVALYDFVASGDNTLSITKGEKLRVLGYNHNGEWCEAQTKNGQGWVPDNYITPVN, for which the abundance fitness is -0.395 ± 0.088.

With NLFVALYDFVASGDNTLSITKGEKLRVLGYNHNGEWCEAQTKNGQGWVPINYITPVN, the abundance fitness was -0.493 ± 0.23.

Take NLFVALYDFVASGDNTLSITKGEKLRVLGYNHNGEWCEAQTKNGQGWVPNNYITPVN: the abundance fitness was 0.091 ± 0.18.

As for NLFVALYDFVASGDNTLSITKGEKLRVLGYNHNGEWCEAQTKNGQGWVPTNYITPVN, the abundance fitness was -0.08 ± 0.12.

As to NLFVALYDFVASGDNTLSITKGEKLRVLGYNHNGEWCEAQTKNGQGRVPSNYITPVN, the abundance fitness was -0.134 ± 0.087.

Turning to NLFVALYDFVASGDNTLSITKGEKLRVLGYNHNGEWCEAQTKNGQGPVPSNYITPVN, the abundance fitness was -0.318 ± 0.11.

On to NLFVALYDFVASGDNTLSITKGEKLRVLGYNHNGEWCEAQTKNGQGVVPSNYITPVN, for which the abundance fitness is -0.246 ± 0.073.

Consider NLFVALYDFVASGDNTLSITKGEKLRVLGYNHNGEWCEAQTKNGQGDVPSNYITPVN, for which the abundance fitness is -0.647 ± 0.27.

As for NLFVALYDFVASGDNTLSITKGEKLRVLGYNHNGEWCEAQTKNGQGHVPSNYITPVN, the abundance fitness is -0.432 ± 0.099.

In the case of NLFVALYDFVASGDNTLSITKGEKLRVLGYNHNGEWCEAQTKNGQGQVPSNYITPVN, the abundance fitness is -0.755 ± 0.22.

With NLFVALYDFVASGDNTLSITKGEKLRVLGYNHNGEWCEAQTKNGQGSVPSNYITPVN, the abundance fitness is -0.386 ± 0.076.

On to NLFVALYDFVASGDNTLSITKGEKLRVLGYNHNGEWCEAQTKNGQGGVPSNYITPVN, for which the abundance fitness was -0.991 ± 0.14.

In the case of NLFVALYDFVASGDNTLSITKGEKLRVLGYNHNGEWCEAQTKNGQGNVPSNYITPVN, the abundance fitness is -0.132 ± 0.092.

In the case of NLFVALYDFVASGDNTLSITKGEKLRVLGYNHNGEWCEAQTKNGQGMVPSNYITPVN, the abundance fitness is -0.196 ± 0.15.

As to NLFVALYDFVASGDNTLSITKGEKLRVLGYNHNGEWCEAQTKNGQGKVPSNYITPVN, the abundance fitness was -0.416 ± 0.15.

Turning to NLFVALYDFVASGDNTLSITKGEKLRVLGYNHNGEWCEAQTKNGQGAVPSNYITPVN, the abundance fitness is -0.211 ± 0.078.

Turning to NLFVALYDFVASGDNTLSITKGEKLRVLGYNHNGEWCEAQTKNGQGLVPSNYITPVN, the abundance fitness is 0.054 ± 0.06.
